This note sets out measurements from patent US12616739B2, “GLP-1 prodrugs and uses thereof” (Novo Nordisk A/S, priority 2020, dated 2026).

The nature of the data set: Prodrug to drug conversion half-life in vitro, PBS pH 7.4, 37° C. Format: physicochemical. Here is the method: General Methods for Measuring Conversion Half-Life
The assay was performed to investigate the conversion half-life of prodrug to drug of the prodrugs of the invention.
Peptide stock solutions were prepared by dissolving freeze-dried powder in PBS buffer to a target of 200 μM. PBS-buffer was Dulbecco's Phosphate Buffered Saline without CaCl2 and MgCl2, gibco 14190-094 adjusted to pH=7.4. The pH of the peptide stock solutions was adjusted to 7.4 with 0.02 M HCl or 0.02M NaOH. Samples were filled in Agilent HPLC vials with fixed insert. Vials were capped to prevent evaporation. The HPLC vials were incubated at 37° C. and samples were withdrawn at different time points over a period of 2 weeks, flash frozen at −80° C., and stored at −20° C. until analysis.
Sample analysis was carried out using UPLC coupled to UV detection at 215 nm and MS (UPLC-UV-MS). One μl of sample was injected on to a Waters Acquity UPLC with a flow-through-needle injection system and on to a Waters Acquity CSH C18 column (1*150 mm), with a particle size of 1.7 μm and held at 55° C. A flow-rate of 100 μl/min was delivered with a Binary solvent manager pump having 0.1% formic acid in water as solvent A and 0.1% formic acid in acetonitrile as solvent B. Gradient elution was carried out using 15-32% B from 0 to 4 min followed by 32 to 48% B from 4 to 54 min.
The identity of the prodrug was confirmed by MS and the peak purity, area %, from the UV signal at 215 nm was plotted as the natural logarithm against time and the slope (k) was used to calculate the first order half-life (T½)=T½=Ln(2)/k.
Take `CC[C@H](C)[C@H](NC(=O)[C@H](Cc1ccccc1)NC(=O)[C@H](CCC(=O)O)NC(=O)[C@H](CCCCNC(=O)COCCOCCNC(=O)COCCOCCNC(=O)CC[C@H](NC(=O)CCCCCCCCCCCCCCCCC(=O)O)C(=O)O)NC(=O)[C@H](C)NC(=O)[C@H](C)NC(=O)[C@H](CCC(N)=O)NC(=O)CNC(=O)[C@H](CCC(=O)O)NC(=O)[C@H](CC(C)C)NC(=O)[C@H](Cc1ccc(O)cc1)NC(=O)[C@H](CO)NC(=O)[C@H](CO)NC(=O)[C@@H](NC(=O)[C@H](CC(=O)O)NC(=O)[C@H](CO)NC(=O)[C@@H](NC(=O)[C@H](Cc1ccccc1)NC(=O)[C@@H](NC(=O)CNC(=O)[C@H](CCC(=O)O)NC(=O)C(C)(C)NC(=O)[C@H](Cc1c[nH]cn1)NC(=O)CN(CCNC(=O)CC[C@H](NC(=O)CCCCCCCCCCCCCCC(=O)O)C(=O)O)C(=O)CN)[C@@H](C)O)[C@@H](C)O)C(C)C)C(=O)N[C@@H](C)C(=O)N[C@@H](Cc1c[nH]c2ccccc12)C(=O)N[C@@H](CC(C)C)C(=O)N[C@H](C(=O)N[C@@H](CCCNC(=N)N)C(=O)NCC(=O)N[C@@H](CCCNC(=N)N)C(=O)NCC(=O)O)C(C)C` [Chem. 14, Gly-N^α-2-[[(4S)-4-carboxy-4-(15-carboxypentadecanoylamino)butanoyl]amino]ethyl-Gly-semaglutide]: the half-life is 106 h. `CC[C@H](C)[C@H](NC(=O)[C@H](Cc1ccccc1)NC(=O)[C@H](CCC(=O)O)NC(=O)[C@H](CCCCNC(=O)COCCOCCNC(=O)COCCOCCNC(=O)CC[C@H](NC(=O)CCCCCCCCCCCCCCCCC(=O)O)C(=O)O)NC(=O)[C@H](C)NC(=O)[C@H](C)NC(=O)[C@H](CCC(N)=O)NC(=O)CNC(=O)[C@H](CCC(=O)O)NC(=O)[C@H](CC(C)C)NC(=O)[C@H](Cc1ccc(O)cc1)NC(=O)[C@H](CO)NC(=O)[C@H](CO)NC(=O)[C@@H](NC(=O)[C@H](CC(=O)O)NC(=O)[C@H](CO)NC(=O)[C@@H](NC(=O)[C@H](Cc1ccccc1)NC(=O)[C@@H](NC(=O)CNC(=O)[C@H](CCC(=O)O)NC(=O)C(C)(C)NC(=O)[C@H](Cc1c[nH]cn1)NC(=O)CN(CCCCNC(=O)CC[C@H](NC(=O)CCCCCCCCCCCCCCCCC(=O)O)C(=O)O)C(=O)CN)[C@@H](C)O)[C@@H](C)O)C(C)C)C(=O)N[C@@H](C)C(=O)N[C@@H](Cc1c[nH]c2ccccc12)C(=O)N[C@@H](CC(C)C)C(=O)N[C@H](C(=O)N[C@@H](CCCNC(=N)N)C(=O)NCC(=O)N[C@@H](CCCNC(=N)N)C(=O)NCC(=O)O)C(C)C` [Chem. 15, Gly-N^α-4-[[(4S)-4-carboxy-4-(17-carboxyheptadecanoylamino)butanoyl]amino]butyl-Gly-semaglutide]: the half-life was 101 h. To `CC[C@H](C)[C@H](NC(=O)[C@H](Cc1ccccc1)NC(=O)[C@H](CCC(=O)O)NC(=O)[C@H](CCCCNC(=O)COCCOCCNC(=O)COCCOCCNC(=O)CC[C@H](NC(=O)CCCCCCCCCCCCCCCCC(=O)O)C(=O)O)NC(=O)[C@H](C)NC(=O)[C@H](C)NC(=O)[C@H](CCC(N)=O)NC(=O)CNC(=O)[C@H](CCC(=O)O)NC(=O)[C@H](CC(C)C)NC(=O)[C@H](Cc1ccc(O)cc1)NC(=O)[C@H](CO)NC(=O)[C@H](CO)NC(=O)[C@@H](NC(=O)[C@H](CC(=O)O)NC(=O)[C@H](CO)NC(=O)[C@@H](NC(=O)[C@H](Cc1ccccc1)NC(=O)[C@@H](NC(=O)CNC(=O)[C@H](CCC(=O)O)NC(=O)C(C)(C)NC(=O)[C@H](Cc1c[nH]cn1)NC(=O)CN(CCNC(=O)CC[C@H](NC(=O)CCCCCCCCCCCCCCCCC(=O)O)C(=O)O)C(=O)CN)[C@@H](C)O)[C@@H](C)O)C(C)C)C(=O)N[C@@H](C)C(=O)N[C@@H](Cc1c[nH]c2ccccc12)C(=O)N[C@@H](CC(C)C)C(=O)N[C@H](C(=O)N[C@@H](CCCNC(=N)N)C(=O)NCC(=O)N[C@@H](CCCNC(=N)N)C(=O)NCC(=O)O)C(C)C` [Chem. 16, Gly-N^α-2-[[(4S)-4-carboxy-4-(17-carboxyheptadecanoylamino)butanoyl]amino]ethyl-Gly-semaglutide] belongs 113 h; to `CC[C@H](C)[C@H](NC(=O)[C@H](Cc1ccccc1)NC(=O)[C@H](CCC(=O)O)NC(=O)[C@H](CCCCNC(=O)COCCOCCNC(=O)COCCOCCNC(=O)CC[C@H](NC(=O)CCCCCCCCCCCCCCCCC(=O)O)C(=O)O)NC(=O)[C@H](C)NC(=O)[C@H](C)NC(=O)[C@H](CCC(N)=O)NC(=O)CNC(=O)[C@H](CCC(=O)O)NC(=O)[C@H](CC(C)C)NC(=O)[C@H](Cc1ccc(O)cc1)NC(=O)[C@H](CO)NC(=O)[C@H](CO)NC(=O)[C@@H](NC(=O)[C@H](CC(=O)O)NC(=O)[C@H](CO)NC(=O)[C@@H](NC(=O)[C@H](Cc1ccccc1)NC(=O)[C@@H](NC(=O)CNC(=O)[C@H](CCC(=O)O)NC(=O)C(C)(C)NC(=O)[C@H](Cc1c[nH]cn1)NC(=O)CN(CCNC(=O)CC[C@H](NC(=O)CCCCCCCCCCCCC(=O)O)C(=O)O)C(=O)CN)[C@@H](C)O)[C@@H](C)O)C(C)C)C(=O)N[C@@H](C)C(=O)N[C@@H](Cc1c[nH]c2ccccc12)C(=O)N[C@@H](CC(C)C)C(=O)N[C@H](C(=O)N[C@@H](CCCNC(=N)N)C(=O)NCC(=O)N[C@@H](CCCNC(=N)N)C(=O)NCC(=O)O)C(C)C` [Chem. 17, Gly-N^α-2-[[(4S)-4-carboxy-4-(13-carboxytridecanoylamino)butanoyl]amino]ethyl-Gly-semaglutide], 106 h; to `CC[C@H](C)[C@H](NC(=O)[C@H](Cc1ccccc1)NC(=O)[C@H](CCC(=O)O)NC(=O)[C@H](CCCCNC(=O)COCCOCCNC(=O)COCCOCCNC(=O)CC[C@H](NC(=O)CCCCCCCCCCCCCCCCC(=O)O)C(=O)O)NC(=O)[C@H](C)NC(=O)[C@H](C)NC(=O)[C@H](CCC(N)=O)NC(=O)CNC(=O)[C@H](CCC(=O)O)NC(=O)[C@H](CC(C)C)NC(=O)[C@H](Cc1ccc(O)cc1)NC(=O)[C@H](CO)NC(=O)[C@H](CO)NC(=O)[C@@H](NC(=O)[C@H](CC(=O)O)NC(=O)[C@H](CO)NC(=O)[C@@H](NC(=O)[C@H](Cc1ccccc1)NC(=O)[C@@H](NC(=O)CNC(=O)[C@H](CCC(=O)O)NC(=O)C(C)(C)NC(=O)[C@H](Cc1c[nH]cn1)NC(=O)CN(CCNC(=O)COCCOCCNC(=O)COCCOCCNC(=O)CC[C@H](NC(=O)CCCCCCCCCCCCCCC(=O)O)C(=O)O)C(=O)CN)[C@@H](C)O)[C@@H](C)O)C(C)C)C(=O)N[C@@H](C)C(=O)N[C@@H](Cc1c[nH]c2ccccc12)C(=O)N[C@@H](CC(C)C)C(=O)N[C@H](C(=O)N[C@@H](CCCNC(=N)N)C(=O)NCC(=O)N[C@@H](CCCNC(=N)N)C(=O)NCC(=O)O)C(C)C` [Chem. 19, Gly-N^α-2-[[2-[2-[2-[[2-[2-[2-[[(4S)-4-carboxy-4-(15-carboxypentadecanoylamino)butanoyl]amino]ethoxy]ethoxy]acetyl]amino]ethoxy]ethoxy]acetyl]amino]ethyl-Gly-semaglutide], 88.8 h. To `CC[C@H](C)[C@H](NC(=O)[C@H](Cc1ccccc1)NC(=O)[C@H](CCC(=O)O)NC(=O)[C@H](CCCCNC(=O)COCCOCCNC(=O)COCCOCCNC(=O)CC[C@H](NC(=O)CCCCCCCCCCCCCCCCC(=O)O)C(=O)O)NC(=O)[C@H](C)NC(=O)[C@H](C)NC(=O)[C@H](CCC(N)=O)NC(=O)CNC(=O)[C@H](CCC(=O)O)NC(=O)[C@H](CC(C)C)NC(=O)[C@H](Cc1ccc(O)cc1)NC(=O)[C@H](CO)NC(=O)[C@H](CO)NC(=O)[C@@H](NC(=O)[C@H](CC(=O)O)NC(=O)[C@H](CO)NC(=O)[C@@H](NC(=O)[C@H](Cc1ccccc1)NC(=O)[C@@H](NC(=O)CNC(=O)[C@H](CCC(=O)O)NC(=O)C(C)(C)NC(=O)[C@H](Cc1c[nH]cn1)NC(=O)CN(CCNC(=O)CC[C@H](NC(=O)CC[C@H](NC(=O)CC[C@H](NC(=O)CCCCCCCCCCCCCCC(=O)O)C(=O)O)C(=O)O)C(=O)O)C(=O)CN)[C@@H](C)O)[C@@H](C)O)C(C)C)C(=O)N[C@@H](C)C(=O)N[C@@H](Cc1c[nH]c2ccccc12)C(=O)N[C@@H](CC(C)C)C(=O)N[C@H](C(=O)N[C@@H](CCCNC(=N)N)C(=O)NCC(=O)N[C@@H](CCCNC(=N)N)C(=O)NCC(=O)O)C(C)C` [Chem. 20, Gly-N^α-2-[[(4S)-4-carboxy-4-[[(4S)-4-carboxy-4-[[(4S)-4-carboxy-4-(15-carboxypentadecanoylamino)butanoyl]amino]butanoyl]amino]butanoyl]amino]ethyl-Gly-semaglutide] belongs 134 h; to `CC[C@H](C)[C@H](NC(=O)[C@H](Cc1ccccc1)NC(=O)[C@H](CCC(=O)O)NC(=O)[C@H](CCCCNC(=O)COCCOCCNC(=O)COCCOCCNC(=O)CC[C@H](NC(=O)CCCCCCCCCCCCCCCCC(=O)O)C(=O)O)NC(=O)[C@H](C)NC(=O)[C@H](C)NC(=O)[C@H](CCC(N)=O)NC(=O)CNC(=O)[C@H](CCC(=O)O)NC(=O)[C@H](CC(C)C)NC(=O)[C@H](Cc1ccc(O)cc1)NC(=O)[C@H](CO)NC(=O)[C@H](CO)NC(=O)[C@@H](NC(=O)[C@H](CC(=O)O)NC(=O)[C@H](CO)NC(=O)[C@@H](NC(=O)[C@H](Cc1ccccc1)NC(=O)[C@@H](NC(=O)CNC(=O)[C@H](CCC(=O)O)NC(=O)C(C)(C)NC(=O)[C@H](Cc1c[nH]cn1)NC(=O)CN(CCCCNC(=O)CC[C@H](NC(=O)CCCCCCCCCCCCCCC(=O)O)C(=O)O)C(=O)CN)[C@@H](C)O)[C@@H](C)O)C(C)C)C(=O)N[C@@H](C)C(=O)N[C@@H](Cc1c[nH]c2ccccc12)C(=O)N[C@@H](CC(C)C)C(=O)N[C@H](C(=O)N[C@@H](CCCNC(=N)N)C(=O)NCC(=O)N[C@@H](CCCNC(=N)N)C(=O)NCC(=O)O)C(C)C` [Chem. 21, Gly-N^α-4-[[(4S)-4-carboxy-4-(15-carboxypentadecanoylamino)butanoyl]amino]butyl-Gly-semaglutide], 93.6 h.

In general, half-life refers to the time needed for the level to fall by half in the phase considered.
